Assays:
[1] = Solution pH in deionized water; assay type: physicochemical; settings: H2O
Protocol: The test compound was mixed in 5 ml of deionized water to achieve a 2 mg/ml solution. The solution pH was measured using a Beckman pH meter.

[2] = Octanol/water partition coefficient; assay type: physicochemical
Protocol: The partition coefficient was measured using an adaptation of the procedure outlined in Drug Stability: Principles and Practices (AAI, Inc. Wilmington, N.C., 2nd Edition, 1995). A 10 ml solution of 10 mg/ml of the test compound of Formula I dissolved in deionized water was placed in a separator funnel, to which 10 ml of 1-octanol was added. The combined mixture was stirred. The mixture was left to separate and the absorption of the compound was measured in the water phase and in the octanol phase by UV/Vis at 413-417 nm (413-417 offers the closest match in absorbance between the octanol phase and the water phase. The octanol water partition coefficient is determined by the formula: […]
The above steps were then repeated using a 10 ml sample of test compound at 1.0 mg/ml.

[3] = Solubility in H2O (deionized water)
[4] = Plasma concentration after injection in atherosclerotic rabbits; assay type: in vivo, NZW rabbits; settings: rabbit, 10 mg/kg injected
Protocol: Plasma pK and biodistribution of the different test compounds of Formula I in plaque are determined and compared with the plasma pK and biodistribution in normal arterial walls. Sixteen normal male NZW rabbits, each weighing 3.5-4.0 kg are obtained from R&R Rabbitry in Stanwood Oreg. Each rabbit is given an intramuscular injection of Ketamine/Rompun [(8.4 mg/kg)/(1.2 mg/kg)] and allowed to relax until the anesthetic takes effect. To induce deep anesthesia, the rabbits then receive a second dose of Ketamine/Rompun [(8.4 mg/kg)/1.2 mg/kg)] via intravenous injection. To expose the abdomen and back legs, each rabbit is shaved with a size 40 blade. Their eyes are coated with lubricant eye ointment (Artificial Tears).
A femoral artery cut down is performed on the right side of the rabbits. Lidocaine (2%) is injected subcutaneously around the femoral artery as a local anesthetic and also applied topically to prevent spasms. A No.4 French Fogarty balloon embolectomy catheter is inserted retrograde 15 cm into the abdominal aorta. The balloon is inflated with 0.5-0.75 ml of hypaque contrast and pulled 3.5 cm distally toward the femoral artery six times. The catheter is then withdrawn. The incision line on the underlying muscle is sutured with 3-0 absorbable chromic gut (Ethicon) and the skin is sutured with 2-0 silk (Ethicon). The rabbits are allowed to recover before being placed back into their respective cages and are placed on a 2% cholesterol diet for 6-8 weeks.
A 3 ml blood sample is taken from each of the rabbits and the cholesterol level for each sample is determined and recorded. Fourteen of the sixteen rabbits are injected with 10 mg/kg of one of the test compounds. One of the remaining rabbits is a pure control and receives neither test compound nor buffer. The other remaining rabbit receives no test compound but does receive 5% mannitol buffer. A 3 ml blood sample is drawn from each of the rabbits at 1, 5 and 24 hours post injection. Each 3 ml blood sample is handled with minimum exposure to ambient light and spun for 10 minutes in a centrifuge at 2,000 rpm within 30 minutes of the blood draw. The supernatant (plasma) is removed by a pipette and put into a 1.8 ml cryotube. The plasma is frozen at −70° C. for future analysis (see part B of this example). All of the rabbits are sacrificed 24 hours after injection.
The clearance rate of the test compound is also particularly important to measure. Plasma samples from each of the test compounds (see part A of this example) are mixed with 10 mM Triton X-100 and the fluorescence optimum is measured at 745 nm by scanning between 700-800 nm using a 450 nm excitation. A standard curve is run to insure that the fluorescence of the samples lies on the linear portion of the curve. The entire fluorescence emission spectrum is observed by using both a monochromator and CCD array. This permits differentiating between the peak at 745 nm and any possible extraneous fluorescence that might have a different optimum, and tail off into the 745 nm region. Test compound accumulation is expressed as μg drug/g tissue (wet weight) or μg/ml in plasma.

[5] = Extinction coefficient by UV/Vis; assay type: physicochemical; settings: in M-1·cm-1 (unit assumed)
Protocol: Four samples of increasing amounts of a test compound of Formula I (between 3 mg and 11 mg) were put into separate 10 ml flasks and dissolved in methanol. Each of the solutions and one control sample (containing no test compound) were diluted to volume. The absorption at 475 nm was measured by UV/Vis and recorded for each of the five samples. The extinction coefficient for each sample was determined accordingly.
The extinction coefficient for the test compound at 475 nm was determined by averaging the extinction coefficient for the four samples (not including the control). The above steps were repeated (at 733 nm) to determine the extinction coefficient for the test compound at 733 nm. When determining the extinction coefficient of aggregated test compounds LuTex acetate, cholate or deoxycholate, the extinction coefficient at 733 nm is not measured. Instead, the above steps were repeated substituting 4% acetic acid/methanol for methanol.

Substance	pH [1]	K ([2]; concentration not given)	solubility in deionized water [3] [µg/mL]	Plasma Concentration ([4]; 2 mg/ml solution, 1 Hour post injection) [ng/mL]	Plasma Concentration ([4]; 2 mg/ml solution, 5 Hours post injection) [ng/mL]	Plasma Concentration ([4]; 2 mg/ml solution, 24 Hours post injection) [ng/mL]	Plasma Concentration ([4]; 10 mg/ml solution, 1 Hour post injection) [ng/mL]	Plasma Concentration ([4]; 10 mg/ml solution, 5 Hours post injection) [ng/mL]	Plasma Concentration ([4]; 10 mg/ml solution, 24 Hours post injection) [ng/mL]	K (octanol/water) ([2]; 0.05 mg/ml)	pH(octanol/water) ([2]; 0.05 mg/ml)	K (octanol/water) ([2]; 0.5 mg/ml)	pH(octanol/water) ([2]; 0.5 mg/ml)	ε(methanol) ([5]; at 475 nm)	ε(methanol) ([5]; at 733 nm)
The lutetium (III) complex of: 4,5-diethyl-10,23-dimethyl-9,24-bis(3-hydroxypropyl)-16,17-bis[2-[2-(2-methoxyethoxy)ethoxy]ethoxy]pentaazapentacyclo[20.2.1.1^3,6.1^8,11.0^14,19]-heptacosa-1,3,5,7,9,11 (27),12,14,16,18,20,22(25),23-tridecaene bis deoxycholate [LuTex bis deoxycholate]	6.11	2.62													
The lutetium (III) complex of: 4,5-diethyl-10,23-dimethyl-9,24-bis(3-hydroxypropyl)-16,17-bis[2-[2-(2-methoxyethoxy)ethoxy]ethoxy]pentaazapentacyclo[20.2.1.1^3,6.1^8,11.0^14,19]-heptacosa-1,3,5,7,9,11(27),12,14,16,18,20,22(25), 23-tridecaene bis benzoate [LuTex bis benzoate]			100												
lutetium complex of 4,5-diethyl-10,23-dimethyl-9,24-bis(3-hydroxypropyl)-16,17-bis[2-[2-(2-methoxyethoxy)ethoxy]ethoxy]pentaazapentacyclo-[20.2.1.1^3,6.1^8,11.0^14,19]heptacosa-1,3,5,7,9,11(27),12,14,16,18,20,22(25),23-tridecaene bis gluconate [LuTex bis gluconate]	5.6			5600	1500	400	2400	700	300	0.028	5.7	0.011	5.1	127900	42200

Source: patent publication US7449454B2, “Metallotexaphyrin derivatives” (Pharmacyclics, Inc., priority 2000, dated 2008)
